# The list shows a part of the results, in another mix than the full data. Active and inactive are the calls of the source.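 The calls were made as follows: active = fluorescence ratio to DMSO below 75%, the collection mean minus 3 SD; inconclusive = too few cells collected in the well; inactive = the rest.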
# The chains behind the UniProt entries cited, without tags or fusion partners.
# UniProt Q9NP58, whole entry: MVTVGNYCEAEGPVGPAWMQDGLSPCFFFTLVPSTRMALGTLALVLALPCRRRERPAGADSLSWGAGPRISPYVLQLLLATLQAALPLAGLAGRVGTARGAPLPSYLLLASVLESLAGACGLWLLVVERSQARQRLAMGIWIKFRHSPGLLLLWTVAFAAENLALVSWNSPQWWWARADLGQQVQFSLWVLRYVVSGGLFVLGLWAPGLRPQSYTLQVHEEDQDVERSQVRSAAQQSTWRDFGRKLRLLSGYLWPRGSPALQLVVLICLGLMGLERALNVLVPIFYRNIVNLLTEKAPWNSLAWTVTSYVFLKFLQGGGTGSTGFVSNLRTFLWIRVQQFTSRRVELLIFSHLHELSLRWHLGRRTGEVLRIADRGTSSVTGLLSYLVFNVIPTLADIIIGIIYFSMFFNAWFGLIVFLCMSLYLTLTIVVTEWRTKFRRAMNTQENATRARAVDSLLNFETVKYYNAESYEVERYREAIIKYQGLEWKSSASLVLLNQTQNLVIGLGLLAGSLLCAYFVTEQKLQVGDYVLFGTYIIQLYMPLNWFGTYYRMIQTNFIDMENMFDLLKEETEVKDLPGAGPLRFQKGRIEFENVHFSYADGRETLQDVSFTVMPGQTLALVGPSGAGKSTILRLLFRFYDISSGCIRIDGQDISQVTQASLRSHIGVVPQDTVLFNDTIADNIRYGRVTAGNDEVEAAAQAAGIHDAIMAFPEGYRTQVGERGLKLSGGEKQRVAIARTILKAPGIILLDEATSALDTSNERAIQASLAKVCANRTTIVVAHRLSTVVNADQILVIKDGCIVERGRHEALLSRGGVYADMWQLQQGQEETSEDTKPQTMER
# Biological target: ATP-binding cassette sub-family B member 6 (Homo sapiens) (UniProt Q9NP58)
# Assay: ABCB6 transporter inhibitors, primary screen, K562-ABCB6 cells, flow cytometry, MLPCN library (AID 602162);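 also: signal is porphyrin accumulated inside mitochondria; 100% equals median channel fluorescence of DMSO control wells; lower ratio means ABCB6 inhibition with less porphyrin fluorescence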
# Conditions: K562-ABCB6 porphyrin accumulation, 1 h, at 10 µM, hits give low values
row,SMILES,fluorescence ratio to DMSO
1,CCC(=O)N(c1ccccc1)C1(COC)CCN(CCn2nnn(CC)c2=O)CC1,inactive: 99%
2,CCC(=O)N(c1ccccc1)C1(COC)CCN(CCc2cccs2)CC1,inactive: 90%

# Reference: PubChem BioAssay AID602162 (NMMLSC, 2011)
